Values of other authors as cited in patent publication US20230111504A1, “COR[…] AND AVERMECTINS” (Huvepharma EOOD, priority 2020, published 2023).

Amino acid sequences for entries named in this document (tags omitted).
UniProt P05177, whole entry: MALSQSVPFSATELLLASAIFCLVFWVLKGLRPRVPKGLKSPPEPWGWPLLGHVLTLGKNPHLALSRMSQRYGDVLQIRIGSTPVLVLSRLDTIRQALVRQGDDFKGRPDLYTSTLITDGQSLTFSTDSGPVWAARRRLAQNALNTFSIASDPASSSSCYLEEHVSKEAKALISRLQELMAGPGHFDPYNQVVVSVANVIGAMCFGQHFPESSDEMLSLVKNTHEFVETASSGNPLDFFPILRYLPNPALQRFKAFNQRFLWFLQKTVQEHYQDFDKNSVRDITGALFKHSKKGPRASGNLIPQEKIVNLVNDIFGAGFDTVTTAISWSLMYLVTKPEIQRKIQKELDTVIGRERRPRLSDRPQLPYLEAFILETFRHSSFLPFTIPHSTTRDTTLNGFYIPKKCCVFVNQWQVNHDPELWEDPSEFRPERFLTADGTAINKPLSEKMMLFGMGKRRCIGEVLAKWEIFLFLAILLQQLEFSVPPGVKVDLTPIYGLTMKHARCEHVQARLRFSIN

How the values were obtained:
CYP2D6 and CYP2E = details: compared to CYP3A4; depending on the in vitro method; cited from earlier work
CYP1A2 = biological target: T1, CYP1A2 (Homo sapiens, UniProt P05177); details: clinically relevant concentrations, human liver microsomes; cited from earlier work
T1 construct: from tissue; host or cells: human liver microsomes

ivermectin
involvement of CYP2D6 and CYP2E in metabolism (CYP2D6 and CYP2E): significantly lower extent | inhibition of metabolizing activity of CYP1A2 (CYP1A2): do not significantly inhibit
